The target in this assay is Epidermal growth factor receptor [T790M,L858R] (Homo sapiens, UniProt P00533, L858R/T790M). Description: Inhibition Assay. From the text:
The object of this assay was to test the inventive compounds for the kinase inhibitory activity in vitro. […] Staurosporine was used as a reference molecule (or referred to as a positive control). […] The IC50 value can be obtained by the calculation of the inhibitory rates at a series of different concentrations of the tested compounds. 1.

The chains behind the UniProt entries cited, without tags or fusion partners. Residues count along the entry.
UniProt P00533, 25-1210 T790M/L858R limits assumed: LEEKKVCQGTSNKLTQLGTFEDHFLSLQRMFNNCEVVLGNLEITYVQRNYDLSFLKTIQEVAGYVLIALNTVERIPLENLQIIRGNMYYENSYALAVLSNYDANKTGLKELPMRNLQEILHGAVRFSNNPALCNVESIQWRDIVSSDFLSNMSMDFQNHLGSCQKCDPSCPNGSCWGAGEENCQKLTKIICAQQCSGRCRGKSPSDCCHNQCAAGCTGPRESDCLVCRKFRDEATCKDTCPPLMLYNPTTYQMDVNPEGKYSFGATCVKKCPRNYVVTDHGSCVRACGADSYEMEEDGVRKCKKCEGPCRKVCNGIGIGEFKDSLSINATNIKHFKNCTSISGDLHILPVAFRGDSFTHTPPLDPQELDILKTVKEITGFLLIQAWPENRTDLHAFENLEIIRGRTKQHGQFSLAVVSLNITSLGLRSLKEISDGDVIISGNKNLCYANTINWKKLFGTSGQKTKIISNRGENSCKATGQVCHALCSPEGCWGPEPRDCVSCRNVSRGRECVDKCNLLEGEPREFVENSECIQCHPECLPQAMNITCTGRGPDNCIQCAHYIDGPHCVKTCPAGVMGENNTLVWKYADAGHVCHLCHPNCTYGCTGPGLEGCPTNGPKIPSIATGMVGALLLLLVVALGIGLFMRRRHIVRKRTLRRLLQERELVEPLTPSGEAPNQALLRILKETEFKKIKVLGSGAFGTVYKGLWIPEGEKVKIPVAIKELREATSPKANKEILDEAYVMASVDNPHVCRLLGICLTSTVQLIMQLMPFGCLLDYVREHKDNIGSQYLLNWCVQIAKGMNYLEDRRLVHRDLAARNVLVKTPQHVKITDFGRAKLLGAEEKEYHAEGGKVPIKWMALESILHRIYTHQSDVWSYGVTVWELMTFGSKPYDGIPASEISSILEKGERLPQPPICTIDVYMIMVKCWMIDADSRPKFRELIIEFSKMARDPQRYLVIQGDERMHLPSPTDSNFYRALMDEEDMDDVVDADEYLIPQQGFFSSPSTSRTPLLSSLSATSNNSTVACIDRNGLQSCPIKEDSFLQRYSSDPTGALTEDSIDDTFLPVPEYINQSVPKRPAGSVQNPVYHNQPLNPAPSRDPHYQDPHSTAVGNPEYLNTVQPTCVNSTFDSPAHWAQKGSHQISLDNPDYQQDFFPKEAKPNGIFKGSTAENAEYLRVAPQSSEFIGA

Where “and” joins values, the source holds several entries; their conditions need not be identical. Identical values can stand only once.

As a reminder, the IC50 is the concentration that gives 50% inhibition. The low end stands for inhibition by little substance, the high end for a need for much substance. As to `CC(C)n1c(Nc2ccccc2)nc2cnc(Nc3ccc(C(=O)NN4CCN(C)CC4)cc3F)nc21` [US9096601,8-6], the 50% inhibitory concentration (IC50) was 46 nM and 18 nM.

For the origin of these results see BindingDB's records for patent US9096601 (Cspc Zhongqi Pharmaceutical Technology (Shijiazhuang), 2015).
